Compound activity: PubChem, National Center for Advancing Translational Sciences (NCATS)
Mito fusion yeast: inhibitors of mitochondrial division or activators of mitochondrial fusion. S. cerevisiae fusion-defective mutant growth rescue, CellTiterGlo 48 h. Potency, µM (doses to about 46.1 µM), without a hit: top-dose growth rescue (activation), actives largely listed as activators. 0.23% of 320,000 active; note: potency is the fitted concentration of half-maximal effect; % of control where 0% means no effect; nearly all actives have a fitted effect of over 45% in size
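Yeast fusion mutant, YPEG (non-fermentable carbon), compound, 48 h at 37C non-permissive; CellTiterGlo added, 10 min RT, luminescence read. Rescued growth = division inhibition.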
Nrf2 inh: blocks Nrf2 signaling; A549 ARE-Fluc reporter, luciferase luminescence, 18-24 h; Potency, µM (highest dose often 46 µM), without a hit: at the highest dose activity change, negative = inhibition, hits mostly inhibitors; 2.1% of 360,000 active; note: potency is the fitted concentration of half-maximal effect; % is set by controls: 0 for no effect and ±100 for the full control effect; nearly all actives have a fitted effect of over 60% in size
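A549 ARE_Fluc cells, 5000/well, 5% FBS OPTI-MEM; compounds in dose-response, 18-24 h at 37 °C/5% CO2; CellTiter-Fluor viability read (Ex 405/Em 525), then BugLite luciferase luminescence = Nrf2 activity.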
A549 tox: counter-screen for Nrf2 inhibitors: cytotoxicity in A549 cells. A549 ARE-Fluc cells, CellTiter-Fluor viability, 18-24 h. Potency, µM (titrated, usually from 46 µM), without a hit: top-dose activity change, negative = cytotoxicity, usual class: inhibitors. 0.16% of 390,000 active; note: potency is the fitted concentration of half-maximal effect; % is set by controls: 0 for no effect and ±100 for the full control effect
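A549 ARE_Fluc cells in 5% FBS OPTI-MEM were exposed to compounds in concentration-response for 18-24 h at 37 deg C. Viability was read by CellTiter-Fluor fluorescence (Ex 405/Em 525) after 30 min, before the luciferase read.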
miR-21 reporter: miR-21 reporter, rising signal; HeLa miR-21 FLuc reporter, luciferase, 48 h; Potency, µM (titrated, usually from 38.3 µM), for the others: at the top dose reporter change, positive = more light; 340,000 tested, under 10 active; AID 2288; active = well fitted rising curve with a large enough effect; inconclusive = small, poorly fitted or top-dose-only effect; inactive = no such curve, though single readings can be large or run the other way;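 also: % of control where 0% means no effect; miR-21 action dims this reporter so a rising signal means less miR-21 action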
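HeLa cells stably expressing CMV-driven firefly luciferase with a downstream miR-21 binding sequence, endogenously expressing miR-21, were treated with titrations (up to about 40uM final) for 48 hours at 37 degree Celsius. Luciferase luminescence was read after lysis.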
Nrf2 ARE act: Nrf2 pathway activation; AREc32 ARE-luciferase reporter (MCF7-derived line), luminescence, 24 h; Potency, µM (highest dose often 46.1 µM), for the others: at the top dose activation, usual class: activators; 0.31% of 410,000 active; note: potency is the fitted concentration of half-maximal effect; % of control where 0% means no effect; nearly all actives have a fitted effect of over 65% in size
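Luciferase luminescence (Steady-Glo, 30 min at room temperature) served as the read-out of ARE activation in AREc32 cells treated with compounds for 24 hr at 37 deg C.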
* marks the source's active call; other numbers are inactive results; ? = inconclusive; . = no result. Hits are enriched below; roughly 2.3% of the tested compounds scored in any of these assays. Unless noted, calls come from the whole dose curve; as a rule, active = well fitted curve in the direction sought with a large enough effect; inconclusive = small, poorly fitted or top-dose-only effect, or another doubt; inactive = no such curve, though single readings can be large; an effect the other way counts as inactive or inconclusive.

The opening three records as a preview:
1) Cc1nn(C2CCS(=O)(=O)C2)c(Cl)c1/C=C/C(=O)OCC(=O)c1cc(C)n(-c2ccc(F)cc2)c1C (stereo unspecified)
2) CN(C)c1cccc(C(=O)Nc2nc3ccc(S(=O)(=O)N4CCCC4)cc3s2)c1
3) Cc1cccc(NC(=O)CN2C(=O)C(c3ccc(F)cc3)=NC23CCCCCC3)c1

| assay / compound | 1 | 2 | 3 |
| --- | --- | --- | --- |
| Mito fusion yeast | -4% | . | . |
| Nrf2 inh | 21µM* | . | -24% |
| A549 tox | 10% | -8% | -18% |
| miR-21 reporter | 21% | -7% | -9% |
| Nrf2 ARE act | 0% | -3% | 0% |

The listing, previewed entries included:
1) Cc1nn(C2CCS(=O)(=O)C2)c(Cl)c1/C=C/C(=O)OCC(=O)c1cc(C)n(-c2ccc(F)cc2)c1C (stereo unspecified)
2) CN(C)c1cccc(C(=O)Nc2nc3ccc(S(=O)(=O)N4CCCC4)cc3s2)c1
3) Cc1cccc(NC(=O)CN2C(=O)C(c3ccc(F)cc3)=NC23CCCCCC3)c1
4) COc1ccccc1NC(=O)CN1C(=O)C(c2ccc(F)cc2)=NC12CCCCC2
5) Cc1ccc(NC(=O)C2CCCN(S(=O)(=O)c3cccc4nsnc34)C2)c(C)c1 (stereo unspecified)
6) CCOC(=O)C1=CC[C@]2(C)c3c(c4ccccc4n3C)C(=O)C1N2C
7) CCOC(=O)C1=CCC2c3c(c4ccccc4n3C)C(=O)C1N2C(=O)OC(C)(C)C (stereo unspecified)
8) CCOc1cccc(C(=O)Nc2ccc3oc(Cc4ccc(Cl)cc4)nc3c2)c1

| assay / compound | 1 | 2 | 3 | 4 | 5 | 6 | 7 | 8 |
| --- | --- | --- | --- | --- | --- | --- | --- | --- |
| Mito fusion yeast | -4% | . | . | . | . | -6% | 9% | 14% |
| Nrf2 inh | 21µM* | . | -24% | 16µM* | -30% | 14% | 15µM* | 21µM* |
| A549 tox | 10% | -8% | -18% | -6% | 1% | -1% | ? | ? |
| miR-21 reporter | 21% | -7% | -9% | 28% | 12% | . | . | 30% |
| Nrf2 ARE act | 0% | -3% | 0% | 4% | -1% | 0% | -2% | 0% |

9) O=C(Nc1ccc2oc(-c3cccnc3)nc2c1)c1cccc(Br)c1
10) CCOc1cccc(C(=O)Nc2ccc3oc(-c4cccnc4)nc3c2)c1
11) O=C(Nc1ccc2oc(Cc3ccc(Cl)cc3)nc2c1)c1cccnc1
12) O=C(/C=C/c1cn(-c2ccccc2)nc1-c1cccnc1)N1CCCC1
13) N#C/C(=C\c1cn(-c2ccccc2)nc1-c1cccnc1)c1nnc2n1CCCCC2
14) CCCn1c(=O)sc2cc(NC(=O)c3ccccc3OCC)ccc21
15) COc1ccc(C(=O)C[n+]2ccc(N(C)C)cc2)cc1
16) CN(C)c1cc[n+](CC(=O)c2ccc(Br)cc2)cc1

| assay / compound | 9 | 10 | 11 | 12 | 13 | 14 | 15 | 16 |
| --- | --- | --- | --- | --- | --- | --- | --- | --- |
| Mito fusion yeast | . | -1% | 10% | 9% | 0% | . | -5% | 6% |
| Nrf2 inh | -22% | 9.2µM* | ? | -18% | 21µM* | -2% | 21µM* | ? |
| A549 tox | 1% | -10% | -8% | ? | ? | 1% | -11% | ? |
| miR-21 reporter | -7% | -4% | 12% | 13% | -3% | -13% | 8% | 20% |
| Nrf2 ARE act | 0% | 0% | 2% | 4% | 0% | 0% | -1% | 0% |

17) CN(C)c1cc[n+](CC(=O)Nc2ccc(OC(F)F)cc2)cc1
18) CC(=O)c1ccc(NC(=O)C[n+]2ccc(N(C)C)cc2)cc1
19) COc1ccc(/C=N/NC(=O)c2ccco2)cc1Cn1nc(C)c([N+](=O)[O-])c1C
20) COc1ccc(/C=N/NC(=O)c2ccn[nH]2)cc1Cn1nc(C)c([N+](=O)[O-])c1C
21) Cc1ccc(OCCCn2c(-c3ccc(Cl)cc3)nc3ccccc3c2=O)c(C)c1
22) Cc1cccc2cc(C#N)c(NCCNC(=O)NC3CCCCC3)nc12
23) COc1ccc(C(=O)NCCNc2nc3c(C)cccc3cc2C#N)cc1
24) CC(C)c1ccc(S(=O)(=O)/N=C2/C=C(Sc3ncn[nH]3)C(=O)c3ccccc32)cc1

| assay / compound | 17 | 18 | 19 | 20 | 21 | 22 | 23 | 24 |
| --- | --- | --- | --- | --- | --- | --- | --- | --- |
| Mito fusion yeast | -12% | -10% | -6% | 3% | . | -2% | . | -23% |
| Nrf2 inh | 23µM* | -43% | 16µM* | ? | 12% | 9.2µM* | ? | 18µM* |
| A549 tox | -7% | 0% | ? | 1% | 10% | -10% | 0% | ? |
| miR-21 reporter | 16% | 2% | 6% | -4% | -2% | -7% | . | ? |
| Nrf2 ARE act | 2% | 0% | 4% | 6% | 3% | 0% | 3% | -3% |

25) COC(=O)c1sc(-c2ccc(Cl)cc2)cc1NC(=O)COCC(=O)O
26) COC(=O)c1c(NC(=O)/C=C/C(=O)O)sc(C)c1-c1ccc(C(C)C)cc1
27) COC(=O)c1sc(-c2ccc(Cl)cc2)cc1NC(=O)/C=C/C(=O)O
28) CCOC(=O)c1c(NC(=O)/C=C/C(=O)O)sc(C)c1-c1ccc(F)cc1
29) COC(=O)c1c(NC(=O)/C=C/C(=O)O)sc(C)c1-c1ccc(C)cc1

| assay / compound | 25 | 26 | 27 | 28 | 29 |
| --- | --- | --- | --- | --- | --- |
| Mito fusion yeast | -3% | 7% | 2% | 2% | -4% |
| Nrf2 inh | ? | ? | ? | ? | ? |
| A549 tox | -14% | 2% | -15% | -5% | -26% |
| miR-21 reporter | -18% | 20% | -17% | 10% | 12% |
| Nrf2 ARE act | 3% | 10µM* | 8.9µM* | ? | 20µM* |
